Reference: ChEMBL document CHEMBL3397016, “SAR-studies of γ-secretase modulators with PPARγ-agonistic and 5-lipoxygenase-inhibitory activity for Alzheimer's disease” (Bioorg Med Chem Lett, 2015)

Protein sequences, listed by entry. Tags and fused reporters are not part of them. Lines headed by an entry give the natural chain unless they say otherwise; changes in a name come on top.
UniProt P37231: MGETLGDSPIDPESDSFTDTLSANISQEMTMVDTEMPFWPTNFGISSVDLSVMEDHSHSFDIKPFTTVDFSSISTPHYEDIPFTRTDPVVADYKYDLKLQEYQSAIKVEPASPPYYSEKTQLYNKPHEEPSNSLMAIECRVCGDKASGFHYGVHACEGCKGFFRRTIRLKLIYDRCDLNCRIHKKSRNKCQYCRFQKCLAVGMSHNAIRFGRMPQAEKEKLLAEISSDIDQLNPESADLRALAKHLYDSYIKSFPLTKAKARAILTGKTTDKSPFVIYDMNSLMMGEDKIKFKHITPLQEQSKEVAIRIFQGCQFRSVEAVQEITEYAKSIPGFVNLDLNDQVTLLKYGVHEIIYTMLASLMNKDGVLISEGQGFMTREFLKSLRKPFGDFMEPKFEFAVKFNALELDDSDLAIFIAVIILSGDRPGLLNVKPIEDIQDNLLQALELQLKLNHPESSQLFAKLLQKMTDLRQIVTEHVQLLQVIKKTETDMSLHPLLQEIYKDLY

Biological target: Peroxisome proliferator-activated receptor gamma (Homo sapiens, UniProt P37231)
Assay: Activation of human PPARgamma ligand binding domain expressed in COS7 cells by dual luciferase reporter gene assay relative to 1 uM pioglitazone
Type: cell-based
Details: COS-7

max activation	Compound
inactive	CCCC/C(=C\c1cc(OCc2ccc(-c3csc(C)n3)cc2)ccc1OCc1ccc(C(F)(F)F)cc1)C(=O)O
inactive	CCCC/C(=C\c1cc(OCc2ccc(CCCC)cc2)ccc1OCc1ccc(C(F)(F)F)cc1)C(=O)O
inactive	CCCC/C(=C\c1cc(OCc2ccc(-c3ccccc3)cc2)ccc1OCc1ccc(C(F)(F)F)cc1)C(=O)O

More lines, now with the values behind:

Compound	max activation
CCCC/C(=C\c1cc(OCc2ccc(Oc3ccccn3)cc2)ccc1OCc1ccc(C(F)(F)F)cc1)C(=O)O	inactive
CCCC/C(=C\c1cc(OCc2ccc(OCc3ccccc3)cc2)ccc1OCc1ccc(C(F)(F)F)cc1)C(=O)O	inactive

Active and inactive are the calls of the source. The rule behind the calls is not given here.
